Read-outs that look alike come from different tables or passages of the source.

Sequences of proteins named here, by UniProt entry; tags and fusion partners are left off. Residues count along the entry.
UniProt P11362, 22-822 limits assumed: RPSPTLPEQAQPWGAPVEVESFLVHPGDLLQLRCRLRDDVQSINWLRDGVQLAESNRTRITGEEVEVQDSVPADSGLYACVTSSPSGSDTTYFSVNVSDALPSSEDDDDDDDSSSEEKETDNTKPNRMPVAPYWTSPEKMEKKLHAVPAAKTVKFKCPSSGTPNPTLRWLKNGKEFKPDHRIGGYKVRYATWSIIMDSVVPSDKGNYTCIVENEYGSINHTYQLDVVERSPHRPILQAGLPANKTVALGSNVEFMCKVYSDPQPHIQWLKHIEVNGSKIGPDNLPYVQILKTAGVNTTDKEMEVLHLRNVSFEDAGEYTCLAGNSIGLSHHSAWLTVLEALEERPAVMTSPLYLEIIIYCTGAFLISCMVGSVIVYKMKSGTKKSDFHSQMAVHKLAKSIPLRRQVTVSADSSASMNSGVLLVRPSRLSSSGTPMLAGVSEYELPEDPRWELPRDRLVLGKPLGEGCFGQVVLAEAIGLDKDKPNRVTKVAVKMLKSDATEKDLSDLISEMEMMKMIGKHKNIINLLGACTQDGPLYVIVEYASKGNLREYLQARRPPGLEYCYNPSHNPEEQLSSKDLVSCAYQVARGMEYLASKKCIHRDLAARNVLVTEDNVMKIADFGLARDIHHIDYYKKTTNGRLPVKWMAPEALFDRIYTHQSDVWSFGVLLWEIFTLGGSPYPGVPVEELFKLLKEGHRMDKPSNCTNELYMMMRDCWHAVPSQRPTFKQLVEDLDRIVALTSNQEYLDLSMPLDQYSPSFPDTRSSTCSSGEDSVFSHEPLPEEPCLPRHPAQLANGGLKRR
UniProt P22455, 22-802 limits assumed: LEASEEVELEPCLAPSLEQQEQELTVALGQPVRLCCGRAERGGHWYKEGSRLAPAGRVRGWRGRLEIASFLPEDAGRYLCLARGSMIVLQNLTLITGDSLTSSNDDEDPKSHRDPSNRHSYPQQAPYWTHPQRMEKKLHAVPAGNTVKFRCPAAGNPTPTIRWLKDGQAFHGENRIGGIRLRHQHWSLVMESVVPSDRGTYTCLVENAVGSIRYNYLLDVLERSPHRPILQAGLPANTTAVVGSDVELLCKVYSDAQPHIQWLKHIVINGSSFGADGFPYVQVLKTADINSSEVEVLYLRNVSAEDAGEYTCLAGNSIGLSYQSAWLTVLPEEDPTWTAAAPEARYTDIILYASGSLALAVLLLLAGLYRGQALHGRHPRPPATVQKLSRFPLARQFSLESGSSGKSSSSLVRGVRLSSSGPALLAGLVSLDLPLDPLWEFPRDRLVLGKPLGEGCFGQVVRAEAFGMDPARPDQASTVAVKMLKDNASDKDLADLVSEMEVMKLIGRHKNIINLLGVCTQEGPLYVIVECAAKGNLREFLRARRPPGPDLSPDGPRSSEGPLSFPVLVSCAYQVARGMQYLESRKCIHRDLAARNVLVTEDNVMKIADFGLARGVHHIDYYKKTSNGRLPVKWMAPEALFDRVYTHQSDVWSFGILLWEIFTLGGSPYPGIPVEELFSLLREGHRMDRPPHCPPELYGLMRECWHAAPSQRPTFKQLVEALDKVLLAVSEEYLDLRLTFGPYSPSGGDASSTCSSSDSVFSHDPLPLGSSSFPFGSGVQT
UniProt P08581, 25-1390 limits assumed: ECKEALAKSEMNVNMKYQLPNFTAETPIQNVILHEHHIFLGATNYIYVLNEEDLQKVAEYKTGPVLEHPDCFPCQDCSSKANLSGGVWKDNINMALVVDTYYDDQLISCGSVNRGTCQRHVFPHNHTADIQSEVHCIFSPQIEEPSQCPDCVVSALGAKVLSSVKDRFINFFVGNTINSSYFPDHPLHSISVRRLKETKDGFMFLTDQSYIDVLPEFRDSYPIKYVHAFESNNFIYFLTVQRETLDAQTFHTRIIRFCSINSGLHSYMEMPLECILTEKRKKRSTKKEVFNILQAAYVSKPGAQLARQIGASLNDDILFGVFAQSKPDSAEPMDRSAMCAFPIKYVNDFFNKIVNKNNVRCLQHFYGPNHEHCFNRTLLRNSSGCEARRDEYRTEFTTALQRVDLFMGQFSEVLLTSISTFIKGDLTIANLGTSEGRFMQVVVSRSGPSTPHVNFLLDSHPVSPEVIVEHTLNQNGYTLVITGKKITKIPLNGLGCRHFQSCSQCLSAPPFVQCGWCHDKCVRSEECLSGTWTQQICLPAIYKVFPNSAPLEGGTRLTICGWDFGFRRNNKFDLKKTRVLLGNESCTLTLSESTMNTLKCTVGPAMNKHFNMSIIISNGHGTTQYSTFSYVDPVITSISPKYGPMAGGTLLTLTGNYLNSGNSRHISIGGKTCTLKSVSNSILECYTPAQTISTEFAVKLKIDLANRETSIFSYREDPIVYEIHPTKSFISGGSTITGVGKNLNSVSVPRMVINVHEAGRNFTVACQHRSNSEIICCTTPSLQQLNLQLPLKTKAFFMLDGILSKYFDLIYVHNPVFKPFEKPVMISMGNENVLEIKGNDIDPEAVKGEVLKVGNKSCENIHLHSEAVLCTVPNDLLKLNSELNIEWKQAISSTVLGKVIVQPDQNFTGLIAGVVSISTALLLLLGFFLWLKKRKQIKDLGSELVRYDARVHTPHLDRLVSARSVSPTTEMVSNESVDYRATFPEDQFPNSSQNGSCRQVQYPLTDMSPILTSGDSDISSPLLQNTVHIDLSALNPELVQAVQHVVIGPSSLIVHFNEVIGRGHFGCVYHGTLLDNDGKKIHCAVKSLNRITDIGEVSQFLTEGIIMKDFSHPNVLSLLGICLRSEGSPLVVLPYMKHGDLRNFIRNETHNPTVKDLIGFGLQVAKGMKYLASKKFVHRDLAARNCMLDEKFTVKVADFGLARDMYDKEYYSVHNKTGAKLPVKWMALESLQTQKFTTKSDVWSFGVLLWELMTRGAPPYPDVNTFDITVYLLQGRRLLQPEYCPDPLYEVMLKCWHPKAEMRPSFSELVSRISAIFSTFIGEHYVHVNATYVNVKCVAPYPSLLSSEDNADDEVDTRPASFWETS

For two compounds, IC50 results are on record in patent publication US12312347B2, “Azaindole derivative and use thereof as FGFR and C-Met inhibitor” (Wuxi Life Fountain Biotech Co., Ltd, priority 2018, dated 2025).

One experiment deals with human FGFR1 (Homo sapiens, UniProt P11362). The experiment can be described thus: 33P isotope-labeled kinase activity test, FGFR1. The experiment is classed as biochemical. Conditions: read-out: IC50 FGFR1, ATP 5 μM.
In another experiment the target is human FGFR4 (Homo sapiens, UniProt P22455). The experiment can be described thus: 33P isotope-labeled kinase activity test, FGFR4. Conditions: read-out: IC50 FGFR4, ATP 100 μM.
The next experiment has as its target human c-Met (Homo sapiens, UniProt P08581). The experiment can be described thus: 33P isotope-labeled kinase activity test, c-Met. To be noted: read-out: IC50 c-Met, ATP 10 μM.

Take `COc1cc(OC)c(F)c(Cc2c[nH]c3ncc(-c4cn(CCO)nc4C)cc23)c1F`: the IC50 (commonly the midpoint of a concentration-inhibition curve) worked out at 1.2 nM on human FGFR1 (tested form: HCl), 25.2 nM on human FGFR4 (tested form: HCl) and 58.9 nM on human c-Met (tested form: HCl).

Consider `COc1cc(OC)c(F)c(Cc2c[nH]c3ncc(-c4cnn(C5CCNCC5)c4C)cc23)c1F`, for which the IC50 on human FGFR1 is 0.55 nM; on human FGFR4 it was 20.8 nM; at human c-Met it was 7.4 nM.
